Measured affinities in a library of Ab-91 heavy chain variants

Values reported by Engelhart et al. 2022, doi:10.1038/s41597-022-01779-4 (FLAb copy).

The target is the same throughout: PDVDLGDISGINAS, from the HR2 region of SARS-CoV-2 spike.

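In library AAYL51, one, two or three CDR residues were substituted; doubles and triples were drawn at random. AlphaSeq pools MATa yeast showing the antibodies with MATalpha yeast showing the peptide. Binding brings cells together so that they mate, and sequencing counts the barcode pairs among the diploids. Each replicate has its own calibration line, from reference interactions of the BCL2 family. The assay was run in three technical replicates.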

The variants keep the light chain, the linker and the frameworks of Ab-91 (scFv order VL, a 15-residue (Gly4Ser)3 linker, VH).
VL: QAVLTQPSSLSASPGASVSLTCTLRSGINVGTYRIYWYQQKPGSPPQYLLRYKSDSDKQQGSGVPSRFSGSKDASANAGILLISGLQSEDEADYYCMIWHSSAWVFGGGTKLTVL
VH: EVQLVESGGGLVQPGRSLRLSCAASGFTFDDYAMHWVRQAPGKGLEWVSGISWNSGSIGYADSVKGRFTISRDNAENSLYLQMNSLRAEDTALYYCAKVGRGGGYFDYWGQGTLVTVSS

Changes read parent residue, position, new residue, counted from the first residue of the VH shown.
Scale: log10 of Kd in nM, estimated from mating counts; low values are strong binders.
"ND" means that the variant was in the library but no mating with the target was seen in that replicate; the authors take this as a sign of poor binding, and no number exists.
Three control strains display no target. For library AAYL51, 21% of the pairings with them gave a signal, with a median of 4.54 and one signal in twenty below 3.26, so weak values seen in few replicates may be background. The control count says in how many pairings with the empty strains this scFv gave a signal, with their mean in brackets.

changes	log10 Kd (nM) by replicate	empty controls
T28P/S63I/G104V	ND / ND / ND	1 of 9 (4.02)
R101C/G102C/G104E	ND / ND / 3.25	2 of 9 (3.66)
T28E/D30N/D62H	1.89 / 1.83 / 1.54	6 of 9 (4.99)
G50N/N54M/A61R	ND / ND / ND	3 of 9 (3.98)
F29V/I58Y/K65Q	5.69 / 4.86 / 5.38	6 of 9 (5.18)
N54V/R101M/G103W	4.21 / ND / ND	5 of 9 (4.05)
H35M/S57T/G104A	4.73 / 4.40 / ND	4 of 9 (4.14)
F27Y/S63K/R101A	3.88 / ND / 5.34	4 of 9 (5.64)
T28P/H35M/I58L	ND / ND / ND	1 of 9 (2.59)
F29G/I51N/G104N	4.42 / ND / ND	1 of 9 (4.26)
D30R/Y32F/S57G	2.95 / 3.04 / 3.13	2 of 9 (4.03)
M34W/W53N	3.78 / ND / 3.83	2 of 9 (3.89)
D62R	ND / ND / 3.58	0 of 9
K65A/R101K/Y105R	4.47 / ND / ND	0 of 9
S57C/S63Q/G100F	ND / ND / ND	3 of 9 (5.55)
G50W/S52I/A61T	ND / ND / ND	0 of 9
F27I/A33T/S57N	ND / ND / 4.82	1 of 9 (3.80)
T28P/G50D/S55F	3.47 / 6.24 / 3.90	6 of 9 (4.79)
A33K/A61L/R101G	ND / ND / ND	0 of 9
G56V/Y60F/G100A	3.96 / 4.24 / 4.16	1 of 9 (3.58)
D30K	1.99 / 1.86 / 1.57	2 of 9 (4.99)
G26R/Y32R/G59S	ND / ND / ND	0 of 9
G50P/G100H/G104V	ND / ND / ND	2 of 9 (4.26)
H35E/S55H/G100Q	4.19 / 6.92 / 6.07	6 of 9 (5.26)
G50C/A61C/D62C	ND / ND / ND	0 of 9
I58W/R101Y	2.84 / 3.09 / 3.06	4 of 9 (4.24)
Y32W/G56D/G100A	2.44 / 2.21 / 2.45	5 of 9 (4.21)
T28W/G102P/Y105W	ND / ND / ND	1 of 9 (4.40)
G26I/A33V/G100T	5.05 / ND / ND	1 of 9 (4.20)
G50N/I58K/D107L	ND / ND / ND	0 of 9
G50C/G102H	ND / ND / ND	1 of 9 (4.72)
I58L/Y60A/A61M	3.75 / 3.22 / ND	0 of 9
G56M/V64Y/K65V	3.53 / 3.59 / 3.59	9 of 9 (5.21)
H35P/Y60S/V99R	4.50 / ND / ND	5 of 9 (4.03)
G50I/S63P/V64I	ND / ND / ND	4 of 9 (5.14)
T28I/A33Q	ND / ND / ND	1 of 9 (3.84)
I51V/R101C/G103S	2.26 / 2.57 / 2.23	5 of 9 (4.61)
G26F/F29M/G104K	ND / ND / ND	2 of 9 (3.60)
T28E/G100C/R101L	ND / ND / ND	0 of 9
Y32T/G50P/G56C	ND / ND / ND	0 of 9
D30K/N54V/D107I	2.94 / 2.62 / 2.47	3 of 9 (4.43)
D62V/K65A	2.31 / 2.51 / 2.74	0 of 9

Top 7 of the variants detected in all replicates, tightest first:

changes,log10 Kd (nM) by replicate,empty controls
T28E/D30N/D62H,1.89 / 1.83 / 1.54,6 of 9 (4.99)
D30K,1.99 / 1.86 / 1.57,2 of 9 (4.99)
I51V/R101C/G103S,2.26 / 2.57 / 2.23,5 of 9 (4.61)
Y32W/G56D/G100A,2.44 / 2.21 / 2.45,5 of 9 (4.21)
D62V/K65A,2.31 / 2.51 / 2.74,0 of 9
D30K/N54V/D107I,2.94 / 2.62 / 2.47,3 of 9 (4.43)
I58W/R101Y,2.84 / 3.09 / 3.06,4 of 9 (4.24)